Source: ChEMBL document CHEMBL3751845, “Synthesis, molecular docking and biological evaluation of N,N-disubstituted 2-aminothiazolines as a new class of butyrylcholinesterase and carboxylesterase inhibitors” (Bioorg Med Chem, 2016)

Experiment: Cytotoxicity against human fetal MSC assessed as reduction in cell viability at <30 uM after 72 hrs by MTT assay

I.ICC1CN=C(Nc2ccccn2)S1 (stereo unspecified)
Activity: Non-toxic
